This is an account of results in ChEMBL document CHEMBL1122944, “The histamine H2 receptor agonist impromidine: synthesis and structure-activity considerations” (J Med Chem, 1985).

Protein sequences, listed by entry. Tags and fused reporters are not part of them.
UniProt P47747, whole entry, looked up: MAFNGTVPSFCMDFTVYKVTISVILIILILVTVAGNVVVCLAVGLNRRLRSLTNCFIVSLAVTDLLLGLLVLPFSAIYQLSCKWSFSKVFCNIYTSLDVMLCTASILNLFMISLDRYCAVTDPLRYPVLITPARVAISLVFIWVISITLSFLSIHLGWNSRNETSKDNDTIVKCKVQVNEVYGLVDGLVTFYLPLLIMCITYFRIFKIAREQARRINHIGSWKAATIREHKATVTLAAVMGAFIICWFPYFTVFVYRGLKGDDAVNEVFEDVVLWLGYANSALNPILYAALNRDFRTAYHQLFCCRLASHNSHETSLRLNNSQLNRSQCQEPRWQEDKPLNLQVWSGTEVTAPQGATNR

Structures are written as SMILES.

The experiment has as its target Histamine H2 receptor (Cavia porcellus, UniProt P47747). The experiment in a line: Antagonistic activity against H2 receptor in guinea pig. The experiment is classed as functional.
Usually pA2 stands for a measure of antagonist potency on a negative log scale. On to `Cc1[nH]cnc1CSCC/N=C(\N)NCCCc1nccs1.O=[N+]([O-])c1cc([N+](=O)[O-])c(O)c([N+](=O)[O-])c1`, for which the pA2 was found to be 6.5. The compound `C/N=C(\N)NCCSCc1nccs1.O=[N+]([O-])c1cc([N+](=O)[O-])c(O)c([N+](=O)[O-])c1` came in with a pA2 of 4.96. In the case of `Cc1[nH]cnc1CSCC/N=C(\N)NCCSCc1nccs1.O=[N+]([O-])c1cc([N+](=O)[O-])c(O)c([N+](=O)[O-])c1` it was 6.11.
